Tested on: AMY1(a) receptor (CT(a)/RAMP1), CTR ECD alanine mutants
Test: 125I-hαCGRP radioligand binding, AMY1(a) CTR mutants
Settings: whole Cos-7 cells

“^125I-hαCGRP: radioligand purchased from PerkinElmer” was tested, and the 125I-CGRP binding (Q52, Y53 and Y56 to Ala) was “substantially reduced” and the 125I-hαCGRP binding (W79, F99, D101, F102, H121, R126, W128 and Y131 to Ala, ~50 pM, 1 h, 37 °C) was “abolished”.

Source: publication PMC4869360, “An allosteric role for receptor activity-modifying proteins in defining GPCR pharmacology” (Cell Discovery, 2016)
